# Binding of CDR-mutated scFvs to a peptide of the spike HR2 region

The target is the same throughout: PDVDLGDISGINAS, from the HR2 region of SARS-CoV-2 spike.

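Phage display of a naive human antibody library on the peptide gave the parent. Designed CDR sequences, proposed from the first random library and measured here. Group labels follow the data file (Ctrl: baseline library sampled from a position-specific scoring matrix, with some repeated check sequences; Rand: our label for a block that the file lists under HC and that is probably the random mutants of the ten best first-round binders; GP: Gaussian process model; GPLM: also part of the Gaussian process libraries; HC: hill climbing; Gen: genetic algorithm; a sequence that several methods proposed may carry one label only). Affinity was read by AlphaSeq, a pooled yeast mating assay with surface-displayed partners. The frequency of each diploid, read from paired DNA barcodes, reflects how well the two displayed proteins bind. Read counts were normalised to the haploid input and turned into Kd by a linear fit to BCL2-family pairs of known affinity, for each replicate. The assay was run in six technical replicates.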

Each scFv is VH, a 15-residue (Gly4Ser)3 linker, VL, as in the parent Ab-14, and differs from it in the CDRs of the light chain only.
VH: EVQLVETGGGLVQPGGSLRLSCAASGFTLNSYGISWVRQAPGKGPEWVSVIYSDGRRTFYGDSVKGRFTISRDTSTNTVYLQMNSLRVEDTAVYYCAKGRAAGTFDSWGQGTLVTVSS
VL: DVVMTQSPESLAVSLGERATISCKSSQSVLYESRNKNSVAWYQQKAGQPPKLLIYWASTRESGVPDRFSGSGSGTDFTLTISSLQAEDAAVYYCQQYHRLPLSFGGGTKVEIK

Variants are written as CDR1, CDR2 and CDR3 of the light chain (limits as in the source). Parent: KSSQSVLYESRNKNSVA, WASTRES, QQYHRLPLS. This list holds designs with at most six substitutions. Kd is apparent (estimated from mating counts) and averaged on the log scale over replicates with a signal. Smaller is tighter. A pair that was not seen in any replicate is written "nd"; this usually means weak binding, but a binder can also be missed.

For KISQSVLDESSNKNSVA / WADTRES / QQYHRLPLS [Ctrl], the assay gave 3.3 nM (6 of 6 replicates; controls 2 of 18).
For KSSQSVLYESRNKNSVA / EASTRES / QQYTRLPLS [Ctrl], the assay gave 3.4 nM (4 of 6 replicates; controls 0 of 18).
For KCSQSVLFEWRNKNSVA / DASTRES / QQYHRLPLS [GP_HC], the assay gave 870 pM (6 of 6 replicates; controls 1 of 18).
For KSSQSVLYESRNKNSVA / WASTRES / QQMRRWPLS [Ctrl], the assay gave 670 nM (2 of 6 replicates; controls 2 of 18).
For KLQQSELYESRNKNSVA / NASKRLS / QQYHRLPLS [GP_Gen], the assay gave 1.7 nM (6 of 6 replicates; controls 1 of 18).
For KQSQEMLYESRNKNSVA / DASTRES / QQYHRLPLS [GP_HC], the assay gave 510 pM (6 of 6 replicates; controls 2 of 18).
For KLRQSVLYESRNKNSVA / WASTRES / QQYHRLPLS [Ctrl], the assay gave nd (0 of 6 replicates; controls 2 of 18).
For KSSQSVLYESRNKNSIA / WASTRIS / QQYKRLPLS [Ctrl], the assay gave 190 nM (1 of 6 replicates; controls 0 of 18).
For KQSQSVLYESRNKNSVA / MASTRES / QQYQRLPLS [GP_HC], the assay gave 4.9 nM (6 of 6 replicates; controls 1 of 18).
For KQSQGKLYESRNKNSVA / DASTRES / QQYHRLPLS [GP_HC], the assay gave 450 pM (6 of 6 replicates; controls 0 of 18).
For KSSQLILYESRYKNSVA / WASTRES / QQYHRLPLS [Ctrl], the assay gave nd (0 of 6 replicates; controls 0 of 18).
For KSAQSVLHESRNINSVA / GASTRES / QQYHRLPLS [Ctrl], the assay gave 4.1 nM (6 of 6 replicates; controls 1 of 18).
For KSSPSVLYESRNKNSVA / NASTRES / QQYHRLPLQ [GP_HC], the assay gave 550 pM (6 of 6 replicates; controls 1 of 18).
For YLSISYLYESPNKNSVA / EASTRES / QQYHRLPLS [GP_HC], the assay gave 1.8 nM (6 of 6 replicates; controls 0 of 18).
For KSSQSVTYESRNKNSVA / WATTRES / QQYHRLPLS [Ctrl], the assay gave nd (0 of 6 replicates; controls 1 of 18).
For KVSPSVLYESRNKNAVA / DASTRES / QQYHRLPLS [GP_Gen], the assay gave 260 pM (6 of 6 replicates; controls 2 of 18).
For KLSDSDLYESRNKNSVA / GASTRES / QQYHRLPLS [GP_Gen], the assay gave 560 pM (6 of 6 replicates; controls 0 of 18).
For KSSQSVLYEGRNKNSVA / NASEREV / QQYHRLPES [Ctrl], the assay gave 4.7 nM (6 of 6 replicates; controls 0 of 18).
For KISISYLYESRNKNSVA / EASTRES / QQYHRLPLM [GP_HC], the assay gave 860 pM (6 of 6 replicates; controls 1 of 18).
For KMSQSVLYESRNKNAVA / DASTRES / QQYHRLPLS [Ctrl+GP_HC], the assay gave 570 pM (12 of 12 replicates; controls 2 of 36).
For KSSQSELYESRNKNSVA / NARTRES / QQYHRLPLS [Ctrl], the assay gave 3.4 nM (6 of 6 replicates; controls 1 of 18).
For KSGCGELYESRNKNSVA / GASTRES / QQYHRLPLS [GP_HC], the assay gave 1.2 nM (6 of 6 replicates; controls 1 of 18).
For KLSQSVLYESYNKNSVA / EASTRES / QQYHRLPLS [Ctrl], the assay gave 500 pM (6 of 6 replicates; controls 2 of 18).
For KFQQSELYESRNKNSVA / NASTRLS / QQYHRLPLS [GP_Gen], the assay gave 860 pM (6 of 6 replicates; controls 1 of 18).
For KVSQSFLYESRNKNAVA / GASTRES / QQYHRLPLS [GP_HC], the assay gave 490 pM (6 of 6 replicates; controls 1 of 18).
For KSSQSVLYESRNKNSVA / WASKRES / QQYHRLPLS [Ctrl], the assay gave 450 nM (3 of 6 replicates; controls 0 of 18).
For KTSKSVLYEWRNKNSVA / WASTRES / QQYHRLPLS [Ctrl], the assay gave 64 nM (4 of 6 replicates; controls 1 of 18).
For KSSQSVTYESRNENSVA / NASTRES / QQYHRLPLS [Ctrl], the assay gave 1.7 nM (6 of 6 replicates; controls 1 of 18).
For KSSQSVSYESSNKNSVA / NASTRPS / QQYHRLPLS [Ctrl], the assay gave 1.7 nM (6 of 6 replicates; controls 0 of 18).
For KSGQGALYESYNKNSVA / GPSTRES / QQYHRLPLS [Rand], the assay gave 48 nM (6 of 6 replicates; controls 2 of 18).
For KSSQSKLYEMRNKNSVA / EASTRES / QQYHRLPLS [Ctrl], the assay gave 44 nM (1 of 6 replicates; controls 0 of 18).
For HQSPSVLYESRNKNSVA / NGSTREE / QQYHRLPLS [GP_HC], the assay gave 850 pM (6 of 6 replicates; controls 2 of 18).
For KVYPSYLYESRNKNSVA / QASTRES / QQYHLLPLS [GP_HC], the assay gave 2.1 nM (6 of 6 replicates; controls 0 of 18).
For KSSISYLYESGNKNSVA / AASTRES / QQYHRLPLS [GP_HC], the assay gave 1.1 nM (6 of 6 replicates; controls 0 of 18).
For KSMQSVLYESRNKNSVA / TASTRTS / QQYHRLPLS [Ctrl], the assay gave 81 nM (1 of 6 replicates; controls 0 of 18).
For KNSQSWLYESRNKNSVA / GASTRES / QQYHRLPLS [GP_HC], the assay gave 1.1 nM (6 of 6 replicates; controls 2 of 18).
For KSSQSVRGESREKNSVA / WASTRES / NQYHRLPLS [Ctrl], the assay gave nd (0 of 6 replicates; controls 1 of 18).
For KSSQSVDIESRNKNSVA / DASTRES / QQYHRLPLS [GP_HC], the assay gave 740 pM (6 of 6 replicates; controls 1 of 18).
For KLSQSHLYESRNKNSVA / NASTRMS / QQYHRLPLS [GP_Gen], the assay gave 950 pM (6 of 6 replicates; controls 1 of 18).
For KSSQSVLGESRNKNSVA / WASTRES / QQYHLLPCS [Ctrl], the assay gave nd (0 of 6 replicates; controls 0 of 18).
For KSSYSYLYESRNKNSVA / EASTRES / QQYHRLPLS [GPLM_HC], the assay gave 1.3 nM (6 of 6 replicates; controls 2 of 18).
For KSKQSRLYENRNTNSVA / WASTRES / QQYHRLPLS [Ctrl], the assay gave 170 nM (3 of 6 replicates; controls 1 of 18).
For KNSQSWLYESRNFNSVA / GASTRES / QQYHRLPLS [GP_HC], the assay gave 2.3 nM (6 of 6 replicates; controls 0 of 18).
For KFSQSGLYESRTKNGVA / NASTRES / QQYHRLPLS [GP_HC], the assay gave 1.4 nM (6 of 6 replicates; controls 0 of 18).
For KSSQGVLYESRNKNSVA / WASTRSN / QQYHRLPLS [Ctrl], the assay gave 86 nM (3 of 6 replicates; controls 0 of 18).
For KSSQSVLFESRNKNQVA / DASTRES / QQNHRMPLS [Rand], the assay gave 36 nM (6 of 6 replicates; controls 0 of 18).

6 of these entries, quoted again:

CDR-L1	CDR-L2	CDR-L3	group	Kd	replicates with signal	empty controls
KSAQSVLHESRNINSVA	GASTRES	QQYHRLPLS	Ctrl	4.1 nM	6/6	1/18
KLSDSDLYESRNKNSVA	GASTRES	QQYHRLPLS	GP_Gen	560 pM	6/6	0/18
KNSQSWLYESRNKNSVA	GASTRES	QQYHRLPLS	GP_HC	1.1 nM	6/6	2/18
KQSQEMLYESRNKNSVA	DASTRES	QQYHRLPLS	GP_HC	510 pM	6/6	2/18
KSSQSVTYESRNENSVA	NASTRES	QQYHRLPLS	Ctrl	1.7 nM	6/6	1/18
KFQQSELYESRNKNSVA	NASTRLS	QQYHRLPLS	GP_Gen	860 pM	6/6	1/18

The authors' rule: three or more of the six replicates give a measured affinity, fewer mean a poor binder. Where one sequence has several entries in the source, the replicates are pooled. A sequence measured in both rounds can read differently, since the two assays cover different ranges. Empty control strains, which show no peptide, gave a signal in 4% of pairings with all light chain designs; the median was 430 nM and 95% of these signals were weaker than 38 nM. No background was subtracted. Also given: how often the same scFv was detected with the empty control strains.

Reference: Li et al. 2023, doi:10.1038/s41467-023-39022-2. File: FLAb, binding data.